In patent US8541200B2, “Cleavage of fusion proteins using Granzyme B protease” (Hoffmann-La Roche Inc., priority 2003, dated 2013):

Experiment: Colorimetric FXa activity assay with S2222
Format: biochemical
Conditions: 100 mM NaCl, 50 mM Tris-HCl pH 8.0
Method: To determine whether the added FXa had been properly removed from the incubation mixture, both the GrB-H6 and the FXa activity was measured before and after removal of the added FXa using a colorimetric assay with the substrates S2222 (N-Benzoyl-L-isoleucyl-L-glutamyl-glycyl-L-arginine-p-nitroaniline, Chromogenix, Italy, cat. no. S2222) and Ac-IEPD-pNA (N-acetyl-L-isoleucyl-L-glutamyl-L-prolyl-L-aspartyl-p-nitroaniline, Calbiochem, La Jolla, USA, cat. no. 368067), where the absorbance was measured at 405 nm for approximately 3 minutes, and the ΔOD405/min was calculated. FXa activity was measured using the following mix: 500 μl buffer, 25 μl 3 mM S2222, and 5 μl FXa. GrB-H6 activity was measured using the following mix: 500 μl buffer, 2 μl 100 mM Ac-IEPD-pNA, and 5 μl GrB-H6.
The buffer used was either 100 mM NaCl, 50 mM Tris-HCl pH 8.0 or 100 mM HEPES pH 7.4. An example using the 100 mM NaCl, 50 mM Tris-HCl pH 8.0 buffer is shown below in Table 3, where the top fraction from the SP Sepharose eluate after FXa removal was used: […]

B1: FXa: purified bovine blood clotting factor Xa protease (protein)
chain: ANSFLEEVKQGNLERECLEEACSLEEAREVFEDAEQTDEFWSKYKDGDQCEGHPCLNQGHCKDGIGDYTCTCAEGFEGKNCEFSTREICSLDNGGCDQFCREERSEVRCSCAHGYVLGDDSKSCVSTERFPCGKFTQGRSRRWAIHTSEDALDASELEHYDPADLSPTESSLDLLGLNRTEPSAGEDGSQVVRIVGGRDCAEGECPWQALLVNEENEGFCGGTILNEFYVLTAAHCLHQAKRFTVRVGDRNTEQEEGNEMAHEVEMTVKHSRFVKETYDFDIAVLRLKTPIRFRRNVAPACLPEKDWAEATLMTQKTGIVSGFGRTHEKGRLSSTLKMLEVPYVDRSTCKLSSSFTITPNMFCAGYDTQPEDACQGDSGGPHVTRFKDTYFVTGIVSWGEGCARKGKFGVYTKVSNFLKWIDKIMKARAGAAGSRGHSEAPATWTVPPPLPL
Question: With B1 as the molecule, how does the “FXa activity, before FXa removal” value read?
Answer: The value was 0.0139 ΔOD405/min.

Question: And the “FXa activity, after FXa removal” value (top fraction of SP Sepharose eluate)?
Answer: Its value is 0.0001 ΔOD405/min.
